The values below come from ChEMBL document CHEMBL5346971, “Discovery of the First Irreversible HDAC6 Isoform Selective Inhibitor with Potent Anti-Multiple Myeloma Activity” (J Med Chem, 2023).

Protein sequences, listed by entry. Tags and fused reporters are not part of them.
UniProt Q92769, whole entry: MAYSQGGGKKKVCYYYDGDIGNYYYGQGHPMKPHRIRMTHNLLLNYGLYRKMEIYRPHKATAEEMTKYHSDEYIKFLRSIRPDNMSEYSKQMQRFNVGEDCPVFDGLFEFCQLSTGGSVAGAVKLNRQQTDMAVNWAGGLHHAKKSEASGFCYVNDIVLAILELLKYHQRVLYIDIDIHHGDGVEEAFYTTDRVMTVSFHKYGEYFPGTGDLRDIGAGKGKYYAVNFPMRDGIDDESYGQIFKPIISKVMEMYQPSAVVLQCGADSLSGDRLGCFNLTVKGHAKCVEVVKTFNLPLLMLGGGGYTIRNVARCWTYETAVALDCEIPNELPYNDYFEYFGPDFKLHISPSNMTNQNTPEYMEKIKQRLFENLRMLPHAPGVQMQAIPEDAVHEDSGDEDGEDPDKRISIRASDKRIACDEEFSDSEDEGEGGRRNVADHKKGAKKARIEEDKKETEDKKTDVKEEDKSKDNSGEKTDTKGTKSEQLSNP

The target of the test is Histone deacetylase 2 (Homo sapiens, UniProt Q92769). As to the kind of experiment: Inhibition of C-terminal FLAG-tagged human full length recombinant HDAC2 (1 to 488 residues) expressed in Sf9 cells using Boc-Lys(acetyI)-AMC as substrate preincubated with enzyme for 1 hr followed by substrate addition and measured after 30 mins by fluorescence based analysis.

pIC50: −log10 of the molar value.

As a reminder, the pIC50 is −log10 of the IC50, conventionally taken in molar units. As for `O=C(CCCCCOc1no[n+]([O-])c1S(=O)(=O)c1ccccc1)NO`, the pIC50 is 6.52.
